# Assay results as given in PMC4841536, “Characterization of the Anti-HCV Activities of the New Cyclophilin Inhibitor STG-175” (PLoS ONE, 2016).
# Sequences of proteins named here, by UniProt entry; tags and fusion partners are left off.
# UniProt P62937, whole entry: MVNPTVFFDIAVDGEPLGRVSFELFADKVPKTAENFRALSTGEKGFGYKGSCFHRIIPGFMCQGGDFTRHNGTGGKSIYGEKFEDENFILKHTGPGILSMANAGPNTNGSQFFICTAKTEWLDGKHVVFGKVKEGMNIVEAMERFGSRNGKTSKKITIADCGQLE
# Target: T1, Human recombinant CypA (Homo sapiens, UniProt P62937)
# T1 construct: purchased Atgen
# Test: α-chymotrypsin-coupled PPIase assay, CypA isomerase activity
# Format: biochemical
# Conditions: 5°C, 10 concentrations 0.05–1000 nM; read-out: IC50, neutralization of the isomerase activity of CypA
# Protocol: Inhibition of CypA and CypD isomerase activities were quantified using a α-chymotrypsin-coupled assay adapted to a 96-well plate format. Human recombinant CypA or CypD (Atgen) was dissolved to 10 nM in PPIases buffer (50 mM Hepes, 100 mM NaCl, 1 mg/ml bovine serum albumin, 1 mg/ml α-chymotrypsin; pH 8). Succinyl-AAPF-pNA peptide substrate (Sigma) was dissolved to 3.2 mM in LiCl/trifluoroethanol. Each CypI was prepared at 10 concentrations in DMSO, then diluted into CypA/D PPIase buffer to 0.05–1000 nM. Incubations were performed at 5°C. Ninety five μL of reaction mix was added to 5 μL peptide in 96-wells and OD405 nm measured at 6-sec intervals for 6 min using a Biotek Synergy H4 plate reader. Data were fitted with Graphpad Prism 6.0 to acquire first-order rate constants, which were calculated by subtracting the rate constant from uncatalyzed reactions (no CypA/D). […]
# The inhibition of the isomerase activities of CypA and CypD were measured with 10 increasing concentrations of STG-175 to quantify IC50 values.
# Fig 1 Anti-PPIase and immunosuppressive activities of STG-175. […] Inhibition of CypA (B) and CypD (C) isomerase activities were assessed using the α-chymotrypsin-coupled assay. […] D. IL-2 promoter activation upon T-cell stimulation was determined using an engineered Jurkat T-cell line, which expresses betagalactosidase. […] The Y-axis values are expressed as percentage of activity. […]
compound,measurement,value
C/C=C/C[C@@H](C)[C@@H](O)[C@H]1C(=O)N[C@@H](CC)C(=O)N(C)[C@H](SCCN(C)C)C(=O)N(C)[C@@H](CC(C)(C)O)C(=O)N[C@@H](C(C)C)C(=O)N(C)[C@@H](CC(C)C)C(=O)N[C@@H](C)C(=O)N[C@H](C)C(=O)N(C)[C@@H](CC(C)C)C(=O)N(C)[C@@H](CC(C)C)C(=O)N(C)[C@@H](C(C)C)C(=O)N1C [SCY-635],IC50,4.8 nM
